Test results reported in PubChem BioAssay (NCI).
Where “and” joins values, the source holds several entries; their conditions need not be identical. Equal entries are not always repeated. The list shows a part of the results, in another mix than the full data.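 For each line, cells grew in 96-well plates with the test compound present at a single concentration for 48 hours.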 Calls of active or inactive are those of the source. How the source made its calls: active means growth percent below 10; inactive means the rest.

System: MDA-MB-468 breast
Test: NCI-60 one-dose screen, 48 h (100 = growth as untreated, 0 = no growth, -100 = all killed)
Details: 10 µM unless noted

Structure (SMILES)	growth
CCOP(=O)(Nc1ccc(C)cn1)OCC	inactive: 84.8%
CCN(CC)CCOC(=O)C(O)(c1cccc(OC)c1OC)c1cccc(OC)c1OC	inactive: 107%
O=[As](O)(O)c1cccnc1	inactive: 107%
N/C(=N/[N+](=O)[O-])N(CCBr)N=O	inactive: 106%
ClCCN(CCc1ccccc1)Cc1ccccc1	inactive: 94.8%
CC(Cl)CN(CC(C)Cl)C(=O)c1ccccc1 (stereo not given)	inactive: 103%
O=C(c1ccc(F)cc1)N(CCCl)CCCl	inactive: 98.8%
Cc1ccc(S(=O)(=O)n2cc(C3(O)CC(CC#N)OC3=O)c3cc(Br)ccc32)cc1 (stereo not given)	inactive: 106%
C=CCOP(O)OCC=C	inactive: 105%
CCCCOP(OCCCC)OCCCC	inactive: 102%
Nc1cccc2c([As](=O)(O)O)cccc12	inactive: 111%
ClCCNCc1ccccc1	inactive: 105%
CC1CN1P(=O)(Nc1ncccn1)N1CC1C (stereo not given)	inactive: 106%
CCCN(CCCl)C1c2ccccc2-c2ccccc21	inactive: 106%
CCCC1OP(N)(=O)OCC1CC (stereo not given)	inactive: 112% and inactive: 92.7%
Cc1ccc(Sc2ccc([N+](=O)[O-])cc2[N+](=O)[O-])c([N+](=O)[O-])c1	inactive: 31%
CC(Cc1ccccc1)N(CCCl)Cc1ccccc1 (stereo not given)	inactive: 86.5%
NC(=O)c1[nH]cnc1/N=N\N(CCCl)CCCl	inactive: 103%
O=[N+]([O-])N1CCCS1(=O)=O	inactive: 99.7%
O=P(Cl)(N1CCCCCC1)N1CCCCCC1	inactive: 97.1%
